{"source": "patent US8999654B2", "about": "“Method of identifying a compound for the treatment or prevention of obesity” (Omeros Corporation, priority 2003, dated 2015)", "system": "WT and GPR88 KO mice", "assay": "Amphetamine-induced reduction of prepulse inhibition (PPI) of the acoustic startle response", "conditions": "amphetamine 2.5 mg/kg i.p., tested 30 minutes later, both WT and GPR88 KO mice (129sv), p<0.001"}
{"smiles": "CC(N)Cc1ccccc1", "note": "(stereo not shown) [amphetamine]", "values": [{"measurement": "prepulse inhibition (PPI)", "result": "significant reduction of PPI in both WT and KO"}]}
